“And” between values parts separate entries of the source, which are not always exact repeats. Identical values can stand only once. The list shows a part of the results, in another mix than the full data.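 In brief: 96-well plates, 48 h treatment, single concentration, percent growth endpoint.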 The source made the active and inactive calls. How the source made its calls: active means growth percent below 10; inactive means the rest.
Columns and labels:
Assay in all cases: NCI-60 one-dose screen, 48 h (100 = growth as untreated, 0 = no growth, -100 = all killed)
HCT-15 colon = conditions: 10 µM unless noted
HT29 colon = conditions: 10 µM unless noted
SNB-75 CNS = conditions: 10 µM unless noted
SNB-19 CNS = conditions: 10 µM unless noted
U251 CNS = conditions: 10 µM unless noted
PC-3 prostate = conditions: 10 µM unless noted
SK-MEL-5 melanoma = conditions: 10 µM unless noted
UACC-62 melanoma = conditions: 10 µM unless noted
LOX IMVI melanoma = conditions: 10 µM
SK-MEL-28 melanoma = conditions: 10 µM unless noted
SK-MEL-2 melanoma = conditions: 10 µM unless noted
SN12C renal = conditions: 10 µM unless noted
UO-31 renal = conditions: 10 µM unless noted
TK-10 renal = conditions: 10 µM unless noted
ACHN renal = conditions: 10 µM unless noted
CAKI-1 renal = conditions: 10 µM unless noted
A498 renal = conditions: 10 µM unless noted
HL-60(TB) leukemia = conditions: 10 µM unless noted
CCRF-CEM leukemia = conditions: 10 µM unless noted

Structure (SMILES)	growth (HCT-15 colon)	growth (HT29 colon)	growth (SNB-75 CNS)	growth (SNB-19 CNS)	growth (U251 CNS)	growth (PC-3 prostate)	growth (SK-MEL-5 melanoma)	growth (UACC-62 melanoma)	growth (LOX IMVI melanoma)	growth (SK-MEL-28 melanoma)	growth (SK-MEL-2 melanoma)	growth (SN12C renal)	growth (UO-31 renal)	growth (TK-10 renal)	growth (ACHN renal)	growth (CAKI-1 renal)	growth (A498 renal)	growth (HL-60(TB) leukemia)	growth (CCRF-CEM leukemia)
O=C(OCCNCCCl)c1ccccc1	inactive: 101%	inactive: 111%	inactive: 82.7%	inactive: 105%	inactive: 104%	inactive: 99.5%	inactive: 105%	inactive: 106%	inactive: 98.6%	inactive: 102%	inactive: 145%	inactive: 103%	inactive: 103%	inactive: 134%	inactive: 95%	inactive: 86.4%	inactive: 108%	inactive: 100%	
CCP(Cl)(Cl)(Cl)CC	inactive: 88.4%	inactive: 115%	inactive: 90%	inactive: 96.8%	inactive: 95.7%	inactive: 91.1%	inactive: 88.5%	inactive: 99.7%	inactive: 90.8%	inactive: 99.4%	inactive: 89.8%	inactive: 94.1%	inactive: 72.1%	inactive: 99.5%	inactive: 90.3%	inactive: 88.9%	inactive: 103%	inactive: 85.9%	
OP1OCCO1	inactive: 111%	inactive: 104%	inactive: 85.2%	inactive: 106%	inactive: 105%	inactive: 91.3%	inactive: 106%	inactive: 101%	inactive: 105%	inactive: 110%	inactive: 97.3%	inactive: 101%	inactive: 85.7%	inactive: 109%	inactive: 102%	inactive: 89.1%	inactive: 110%	inactive: 111%	
O=C(C(=O)c1ccc([N+](=O)[O-])cc1[N+](=O)[O-])c1ccc([N+](=O)[O-])cc1[N+](=O)[O-]	inactive: 98.2%	inactive: 111%	inactive: 88.8%	inactive: 101%	inactive: 94.5%	inactive: 90.1%	inactive: 89.4%	inactive: 99.9%	inactive: 81.7%	inactive: 113%	inactive: 90.1%	inactive: 102%	inactive: 87.5%	inactive: 116%	inactive: 103%	inactive: 93.8%	inactive: 96.8%	inactive: 89.8%	inactive: 89.3%
Cc1ccccc1C(=O)N(CCCl)CCCl	inactive: 93%	inactive: 107%	inactive: 78.4%	inactive: 107%	inactive: 104%	inactive: 92.6%	inactive: 98.2%	inactive: 105%	inactive: 104%	inactive: 102%	inactive: 92.1%	inactive: 97.2%	inactive: 94.2%	inactive: 132%	inactive: 95.3%	inactive: 115%	inactive: 113%	inactive: 86.7%	
CCOP(=O)(CCBr)OCC	inactive: 97.9% and inactive: 102%	inactive: 107% and inactive: 112%	inactive: 87.2% and inactive: 85.7%	inactive: 112% and inactive: 107%	inactive: 99.5% and inactive: 97.4%	inactive: 94% and inactive: 102%	inactive: 99.1% and inactive: 99.3%	inactive: 105% and inactive: 109%	inactive: 100% and inactive: 99.1%	inactive: 103% and inactive: 106%	inactive: 115% and inactive: 125%	inactive: 106%	inactive: 86.8% and inactive: 98.8%	inactive: 102% and inactive: 112%	inactive: 102% and inactive: 105%	inactive: 94.1% and inactive: 96.2%	inactive: 93.1% and inactive: 29.5%	inactive: 103% and inactive: 97.5%	inactive: 97.6% and inactive: 112%
COc1cccc([As]=O)c1 (centres undefined)	active: -87.9%	active: -46.8%	active: -98.7%	active: -99.2%	active: -93.8%	active: -93.3%	active: -95.2%	active: -97.3%	active: -40%	active: -94.7%	active: -83.1%	active: -98%	active: -93.2%	active: -93.6%	active: -99.1%	active: -95.6%	active: -95.6%	active: -68.6%	
C/C(N)=N/P(=O)(Oc1ccccc1)Oc1ccccc1	inactive: 102%	inactive: 95.9%	inactive: 89.1%	inactive: 101%	inactive: 103%	inactive: 101%	inactive: 100%	inactive: 101%	inactive: 97.5%	inactive: 114%	inactive: 112%	inactive: 101%	inactive: 78.7%	inactive: 104%	inactive: 98.7%	inactive: 99.1%	inactive: 108%	inactive: 99.3%	inactive: 98.7%
CCSC(O)C(Cl)(Cl)Cl (centres undefined)	inactive: 99.3%	inactive: 107%	inactive: 102%	inactive: 104%	inactive: 104%	inactive: 102%	inactive: 97.9%	inactive: 104%	inactive: 103%	inactive: 113%	inactive: 112%	inactive: 103%	inactive: 82.2%	inactive: 114%	inactive: 103%	inactive: 97.5%	inactive: 86.7%	inactive: 95.3%	inactive: 109%
S=C(Nc1ccccc1)N(CCCl)CCCl	inactive: 88.4%	inactive: 90.4%	inactive: 116%	inactive: 102%	inactive: 100%	inactive: 91.1%	inactive: 104%	inactive: 105%	inactive: 96.9%	inactive: 104%	inactive: 77.4%	inactive: 103%	inactive: 93.8%	inactive: 109%	inactive: 97.1%	inactive: 97.5%	inactive: 99.9%	inactive: 97.3%	
NP(=O)(N(CCCl)CCCl)N1CC1 (centres undefined)	inactive: 106%	inactive: 94.3%	inactive: 81.9%	inactive: 106%	inactive: 103%	inactive: 97.9%	inactive: 106%	inactive: 110%	inactive: 96.8%	inactive: 107%	inactive: 95.3%	inactive: 103%	inactive: 89.8%	inactive: 91.9%	inactive: 99.5%	inactive: 95%	inactive: 103%	inactive: 90.5%	
O=C(c1ccc(F)cc1)N(CCCl)CCCl	inactive: 103%	inactive: 98.3%	inactive: 84%	inactive: 101%	inactive: 101%	inactive: 95.6%	inactive: 96.8%	inactive: 104%	inactive: 104%	inactive: 102%	inactive: 105%	inactive: 107%	inactive: 92.6%	inactive: 94.8%	inactive: 98.5%	inactive: 90.9%	inactive: 108%	inactive: 107%	
O=C(O)/C=C\c1cccc(N(CCCl)CCCl)c1	inactive: 104%	inactive: 106%	inactive: 93.5%	inactive: 98%	inactive: 95.8%	inactive: 87.5%	inactive: 104%	inactive: 91.5%	inactive: 105%	inactive: 113%	inactive: 133%	inactive: 99.7%	inactive: 87.8%	inactive: 110%	inactive: 94.8%	inactive: 61.4%	inactive: 105%	inactive: 106%	
O=[As](O)(O)c1ccc(I)cc1	inactive: 103%	inactive: 105%	inactive: 88.4%	inactive: 103%	inactive: 95.7%	inactive: 98%	inactive: 109%	inactive: 100%	inactive: 71.3%	inactive: 104%	inactive: 110%	inactive: 103%	inactive: 95.2%	inactive: 111%	inactive: 98.1%	inactive: 97.7%	inactive: 108%	inactive: 94.5%	
CCOP(=S)(OCC)OCC	inactive: 94.9%	inactive: 96.2%	inactive: 89.5%	inactive: 103%	inactive: 102%	inactive: 102%	inactive: 104%	inactive: 106%	inactive: 100%	inactive: 106%	inactive: 113%	inactive: 105%	inactive: 98%	inactive: 107%	inactive: 99.4%	inactive: 101%	inactive: 112%	inactive: 120%	inactive: 106%
O=C(N(CCCl)CCCl)C(Cl)(Cl)Cl	inactive: 92.7%	inactive: 91.6%	inactive: 80.6%	inactive: 102%	inactive: 93%	inactive: 81.4%	inactive: 98.2%	inactive: 104%	inactive: 107%	inactive: 103%	inactive: 105%	inactive: 105%	inactive: 102%	inactive: 106%	inactive: 99.7%	inactive: 85.2%	inactive: 114%	inactive: 107%	
COc1ccc(C(=O)N(CCCl)CCCl)cc1OC	inactive: 96.6%	inactive: 91.5%	inactive: 91%	inactive: 109%	inactive: 106%	inactive: 102%	inactive: 107%	inactive: 108%	inactive: 101%	inactive: 114%	inactive: 89.4%	inactive: 108%	inactive: 95.7%	inactive: 113%	inactive: 97.9%	inactive: 97.7%	inactive: 119%	inactive: 80%	
CCN(CCCl)CC1OC(O)C(O)C1O (centres undefined)	inactive: 110%	inactive: 108%	inactive: 98.3%	inactive: 101%	inactive: 97%	inactive: 96.5%	inactive: 86.2%	inactive: 103%	inactive: 105%	inactive: 112%	inactive: 137%	inactive: 98.9%	inactive: 101%	inactive: 116%	inactive: 101%	inactive: 80.8%	inactive: 104%	inactive: 114%	

Reference: PubChem BioAssay (NCI)
